Experimental data reported in US20020086390.

Molecular target: GST-Rac1 preloaded with GTPγS, P63000

B1: inactive PAK I holoenzyme (p60) purified from rabbit reticulocytes (protein)
chain: SDNGELEDKPPAPPVRMSSTIFSTGGKDPLSANHSLKPLPSVPEEKKPRNKIISIFSGTEKGSKKKEKERPEISPPSDFEHTIHVGFDAVTGEFTGMPEQWARLLQTSNITKLEQKKNPQAVLDVLKFYDSNTVKQKYLSFTPPEKDGFPSGAPALNTKVSETSAVVTEEDDDDEEAAPPVIAPRPDHTKSIYTRSVIDPIPAPVGDSHVDSGAKSSDKQKKKTKMTDEEIMEKLRTIVSIGDPKKKYTRYEKIGQGASGTVFTATDVALGQEVAIKQINLQKQPKKELIINEILVMKELKNPNIVNFLDSYLVGDELFVVMEYLAGGSLTDVVTETCMDEAQIAAVCRECLQALEFLHANQVIHRDIKSDNVLLGMEGSVKLTDFGFCAQITPEQSKRSTMVGTPYWMAPEVVTRKAYGPKVDIWSLGIMAIEMVEGEPPYLNENPLRALYLIATNGTPELQNPEKLSPIFRDFLNRCLEMDVEKRGSAKELLQHPFLKLAKPLSSLTPLIMAAKEAMKSNR
activity (phosphorylation of H4): 1515 pmol/min/mg
autophosphorylation: 0.09 mol/mol
